Laboratory results published in patent publication US20150376252A1.

The chains behind the UniProt entries cited, without tags or fusion partners. A line that says so, or that is headed by a name, gives the form on record, which may keep a tag or linker. Residues count along the entry.
UniProt Q9ULV1, 40-164, form in doubt: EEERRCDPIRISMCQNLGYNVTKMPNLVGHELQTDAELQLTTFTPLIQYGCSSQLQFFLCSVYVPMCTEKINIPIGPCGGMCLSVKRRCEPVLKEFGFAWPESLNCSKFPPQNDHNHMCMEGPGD
UniProt Q9ULV1, 37-537: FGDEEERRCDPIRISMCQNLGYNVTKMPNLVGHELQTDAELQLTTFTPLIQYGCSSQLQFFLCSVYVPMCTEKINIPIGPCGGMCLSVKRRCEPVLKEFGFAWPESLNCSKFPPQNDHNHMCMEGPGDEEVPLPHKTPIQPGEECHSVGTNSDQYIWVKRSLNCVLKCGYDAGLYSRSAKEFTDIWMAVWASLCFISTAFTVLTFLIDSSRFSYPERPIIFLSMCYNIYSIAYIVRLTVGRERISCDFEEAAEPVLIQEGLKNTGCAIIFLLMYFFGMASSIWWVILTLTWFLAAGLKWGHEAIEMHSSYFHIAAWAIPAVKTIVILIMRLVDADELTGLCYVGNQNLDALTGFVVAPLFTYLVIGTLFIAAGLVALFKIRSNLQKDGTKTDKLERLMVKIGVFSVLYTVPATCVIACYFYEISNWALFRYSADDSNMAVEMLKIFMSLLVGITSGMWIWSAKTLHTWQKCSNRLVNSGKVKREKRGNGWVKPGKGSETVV
UniProt O75581, 20-631 limits assumed: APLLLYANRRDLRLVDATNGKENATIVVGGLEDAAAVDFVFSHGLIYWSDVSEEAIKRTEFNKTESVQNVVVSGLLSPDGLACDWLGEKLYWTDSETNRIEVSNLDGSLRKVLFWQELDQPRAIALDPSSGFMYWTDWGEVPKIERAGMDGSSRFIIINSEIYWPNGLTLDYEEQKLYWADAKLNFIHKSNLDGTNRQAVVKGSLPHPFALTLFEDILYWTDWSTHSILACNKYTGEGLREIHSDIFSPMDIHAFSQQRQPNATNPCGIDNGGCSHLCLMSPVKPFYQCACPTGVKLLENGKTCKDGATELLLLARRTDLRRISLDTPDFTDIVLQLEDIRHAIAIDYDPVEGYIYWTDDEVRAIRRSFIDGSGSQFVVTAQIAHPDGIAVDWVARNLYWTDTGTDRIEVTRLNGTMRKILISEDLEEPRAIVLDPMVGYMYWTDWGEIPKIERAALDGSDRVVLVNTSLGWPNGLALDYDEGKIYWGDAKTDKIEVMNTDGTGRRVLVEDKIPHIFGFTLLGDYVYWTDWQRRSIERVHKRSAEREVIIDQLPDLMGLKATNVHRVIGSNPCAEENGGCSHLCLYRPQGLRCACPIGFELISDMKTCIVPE

Key:
[1] = biological target: Fz4-FcH6 (human Frizzled 4 CRD, residues 40-164, fused to Fc and His6 tags) (human) (UniProt Q9ULV1); assay: AlphaScreen saturation binding to Fz4-FcH6
[2] = biological target: His8-tagged Lrp6 BP1-2 (Lrp6 extracellular beta-propeller domains 1 and 2) (UniProt O75581); assay: comparison of the filing's own affinities (Lrp5/6 BP1-2 against Fz4)
[3] = biological target: His8-tagged Lrp6 BP1-2 (Lrp6 extracellular beta-propeller domains 1 and 2) (UniProt O75581); assay: homologous competition against biotinylated MBP-Norrin on Lrp6 BP1-2 (FIG. 4B, 4C); IC50 of the homologous competition
[4] = biological target: His8-tagged Lrp6 BP1-2 (Lrp6 extracellular beta-propeller domains 1 and 2) (UniProt O75581); assay: AlphaScreen homologous competition: unlabeled MBP-Norrin against biotinylated MBP-Norrin on His8-Lrp6 BP1-2, normalized
[5] = biological target: Fz4-FcH6 (human Frizzled 4 CRD, residues 40-164, fused to Fc and His6 tags) (human) (UniProt Q9ULV1); assay: AlphaScreen; competes biotin-MBP-Norrin on Fz4-Fc-H6
[6] = biological target: full-length human Fz4 receptor expressed on transfected cells (human) (UniProt Q9ULV1); assay: cell-based or functional assay
[7] = biological target: His8-tagged Lrp6 BP1-2 (Lrp6 extracellular beta-propeller domains 1 and 2) (UniProt O75581); assay: AlphaScreen; competes biotin DKK1 peptide on H8-Lrp6 BP1-2
[8] = biological target: His8-tagged Lrp6 BP1-2 (Lrp6 extracellular beta-propeller domains 1 and 2) (UniProt O75581); assay: homologous competition, normalized values (FIG. 4C)

Substance: biotinylated MBP-Norrin (ligand)
- EC50 (read off the curve) [1]: 10 nM

Substance: MBP-Norrin (maltose binding protein fused to the N-terminus of human Norrin residues 25-133, wild-type) (ligand)
- fold lower affinity than Norrin-Fz4 interactions [2]: > 40 fold
- IC50 [3]: 570 nM
- IC50 (read off the curve) [4]: 500 to 600 nM
- IC50 [5]: 34 nM
- EC50 of TCF reporter activation (cells cotransfected with Fz4 and Lrp5) [6]: 6 nM and 0.6 µg/ml
- TCF reporter activity of 293STF cells cotransfected with Fz4 and Lrp5 [6]: 6 fold
- TCF reporter activity of 293STF cells transfected with full-length Fz4 [6]: 2 fold
- IC50 [7]: 72 nM
- IC50 [8]: 566 nM

Values joined by “and” are separate entries in the source; they are usually repeats but may differ in a detail not shown here. Equal entries are not always repeated.
